{"source": "ChEMBL document CHEMBL1240386", "about": "“Pharmacokinetics of antituberculosis drugs in pulmonary tuberculosis patients with type 2 diabetes” (Antimicrob Agents Chemother, 2010)", "assay": "Cmax in diabetic tuberculosis patient at 10 mg/kg, po and 10 mg/kg, iv by HPLC analysis", "assay_type": "ADME, organism-based", "settings": "human, in vivo"}
{"compound": "CO[C@H]1/C=C/O[C@@]2(C)Oc3c(C)c(O)c4c(O)c(c(/C=N/N5CCN(C)CC5)c(O)c4c3C2=O)NC(=O)/C(C)=C\\C=C\\[C@H](C)[C@H](O)[C@@H](C)[C@@H](O)[C@@H](C)[C@H](OC(C)=O)[C@@H]1C", "note": "[RIFAMPIN]", "values": [{"measurement": "Cmax", "result": 10500, "unit": "ng/mL"}]}
